Data taken from patent US20140274785A1, “BIOMARKERS” (priority 2013, published 2014).

How the values were obtained:
[1] = system: slow axonal transport of 2H-labeled tubulin; assay: MT-mediated slow axonal transport of 2H-labeled tubulin in L5 root and sciatic nerve of SOD1G93A mice; format: in vivo, mouse; conditions: 13 weeks old mice, 3 weeks treatment
ALS SOD1 G93A mouse = conditions: published; untreated control 10-12 days; cited from earlier work
[2] = system: fast axonal transport of 2H-labeled cargo proteins; assay: MT-mediated fast axonal transport: CSF secretion kinetics and spinal cord retention of 2H-labeled cargo proteins in symptomatic SOD1G93A mice; format: in vivo, mouse; conditions: symptomatic ALS SOD1G93A, vs age-matched wild type; n=10 per time point

Structure (SMILES): Nc1nc2ccc(OC(F)(F)F)cc2s1 [Riluzole]
- rate of slow axonal transport of 2H-labeled tubulin along the axon [1]: no significant effect
- Onset to Death (ALS SOD1 G93A mouse): 14 to 20 days
- transport rates of 2H-Chr-B, 2H-NeuR-1 and 2H-sAPP in CSF [2]: much less of an effect
